Measurements taken from publication PMC5688144, “Assay interference and off-target liabilities of reported histone acetyltransferase inhibitors” (Nature Communications, 2017).

Amino acid sequences for entries named in this document (tags omitted).
UniProt Q92831, whole entry, species assumed: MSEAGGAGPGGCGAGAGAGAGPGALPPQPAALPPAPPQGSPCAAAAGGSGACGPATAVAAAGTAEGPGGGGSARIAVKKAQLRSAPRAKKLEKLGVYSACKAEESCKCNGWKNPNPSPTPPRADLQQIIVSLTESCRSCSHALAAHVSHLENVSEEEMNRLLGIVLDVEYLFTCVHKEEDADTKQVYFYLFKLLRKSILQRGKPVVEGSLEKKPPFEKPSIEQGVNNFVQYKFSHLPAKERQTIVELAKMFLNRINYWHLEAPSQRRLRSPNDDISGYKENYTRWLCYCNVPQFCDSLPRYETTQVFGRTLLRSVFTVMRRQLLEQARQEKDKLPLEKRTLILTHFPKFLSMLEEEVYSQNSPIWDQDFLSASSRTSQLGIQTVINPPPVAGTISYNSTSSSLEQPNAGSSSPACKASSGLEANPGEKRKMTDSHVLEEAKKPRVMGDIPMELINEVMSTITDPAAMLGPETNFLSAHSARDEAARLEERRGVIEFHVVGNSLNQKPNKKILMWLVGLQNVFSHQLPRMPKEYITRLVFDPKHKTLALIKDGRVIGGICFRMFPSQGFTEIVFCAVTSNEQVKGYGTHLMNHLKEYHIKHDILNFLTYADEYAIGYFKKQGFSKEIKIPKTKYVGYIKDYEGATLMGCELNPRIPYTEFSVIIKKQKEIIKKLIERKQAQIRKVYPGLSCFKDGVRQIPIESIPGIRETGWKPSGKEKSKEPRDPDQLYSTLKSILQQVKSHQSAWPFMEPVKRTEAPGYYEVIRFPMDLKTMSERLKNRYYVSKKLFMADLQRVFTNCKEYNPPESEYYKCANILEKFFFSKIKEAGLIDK

Columns and labels:
Tip60 = settings: cited from earlier work
PCAF [1] = molecular target: T1, PCAF (Homo sapiens, UniProt Q92831); assay: PCAF activity in presence and absence of DTT; assay type: biochemical
T1 construct: Reaction Biology Corporation (assays run by this contract lab)
Protocol: (§1) Selectivity profiles vs. HATs, HDACs, SIRTs, HMTs, proteases, kinases, and phosphatases were performed by Reaction Biology Corporation (Malvern, PA; Fig. 3 and Supplementary Fig. 3). Percent activity was normalized to DMSO-only controls. Reference control compounds were included in each assay.
(§2) Relevant reaction procedures for each target class are briefly summarized (see reactionbiology.com for additional details). HATs: reaction buffer 50 mM Tris–HCl, pH 8.0, 50 mM NaCl, 0.1 mM EDTA, ± 1 mM DTT, 1 mM PMSF, 1% DMSO; substrate [^3H]-acetyl-CoA; reaction time 1 h; end-point measurement. […] HMTs: reaction buffer 50 mM Tris–HCl, pH 8.0, 0.01% Brij35, 1 mM EDTA, 1 mM DTT, 1 mM PMSF, 1% DMSO (EZH2); reaction buffer 50 mM Tris–HCl, pH 7.5, 5 mM EDTA, 0.01% Brij35, 5 mM DTT, 0.1 mM PMSF, 5% glycerol, 1% DMSO; 50 mM Tris–HCl, pH 8.5, 5 mM MgCl2, 50 mM NaCl, 0.01 Brij35, 1 mM DTT, 1% DMSO (G9a); methyl donor 1 μM S-Adenosyl-L-[methyl-^3H]-methionine; substrate 5 μM histone proteins or 0.05 mg mL^−1 nucleosomes; pre-incubation time 10–15 min; reaction time 0.5–1 h; end-point measurement. Caspases: reaction buffer 50 mM HEPES, pH 7.4, 1 M citrate, 100 mM NaCl, 0.01% CHAPS, 0.1 mM EDTA, 10 mM DTT; fluorogenic peptide substrate; pre-incubation time 10 min; reaction time 2 h; time-course measurement. […]

PCAF [2] = molecular target: T1, PCAF; settings: read-out: IC50 (µM), PCAF; cited from earlier work
GCN5 = settings: cited from earlier work
five tested HATs = assay: HAT selectivity panel with DTT (Reaction Biology); assay type: biochemical
Protocol: as §1
Relevant reaction procedures for each target class are briefly summarized (see reactionbiology.com for additional details). HATs: reaction buffer 50 mM Tris–HCl, pH 8.0, 50 mM NaCl, 0.1 mM EDTA, ± 1 mM DTT, 1 mM PMSF, 1% DMSO; substrate [^3H]-acetyl-CoA; reaction time 1 h; end-point measurement. HDACs: reaction buffer 50 mM Tris–HCl, pH 8.0, 137 mM NaCl, 2.7 mM KCl, 1 mM MgCl2, 1 mg mL^−1 BSA, 1% DMSO; fluorogenic substrate p53 residues 379–382 (RHKK(Ac)-AMC) (HDAC1/2/3/6/10), fluorogenic substrate p53 residues 379–382 (RHK(Ac)K(Ac)AMC) (HDAC8); fluorogenic substrate trifluoroacetyl lysine (HDAC4/5/7/9/11); pre-incubation included; reaction time 1–2 h; trichostatin A or TMP269 quencher; fluorescent readout λexcite = 360 nm, λemission = 460 nm; end-point measurement. […]

[3] = test system: panel of proteases, kinases, and phosphatases; assay: Pilot selectivity panel (Reaction Biology); assay type: biochemical
Protocol: as §1, §2

human La antigen = molecular target: T2, human La antigen (Homo sapiens, UniProt P05455, T302N); assay: ALARM NMR; assay type: binding
T2 construct: amino acids 100–324 of the human La antigen (plus T302N mutation); 6xHis (N); 6xHis (C); host or cells: Escherichia coli Rosetta cells
T2 sequence (P05455 100-324 T302N): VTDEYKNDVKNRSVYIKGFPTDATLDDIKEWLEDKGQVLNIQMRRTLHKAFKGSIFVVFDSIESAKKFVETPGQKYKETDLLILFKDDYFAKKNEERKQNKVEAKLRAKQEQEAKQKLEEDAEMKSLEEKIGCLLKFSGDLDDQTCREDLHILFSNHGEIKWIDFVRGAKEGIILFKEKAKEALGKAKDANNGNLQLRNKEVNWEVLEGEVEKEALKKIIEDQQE
Description: The gene encoding amino acids 100–324 of the human La antigen (plus T302N mutation) was cloned into pET28b + vector (Novagen) with both an N- and C-terminal 6xHis tag (addgene.org, plasmid ID 90209). The sequence identity of the ALARM NMR plasmid construct was verified by Sanger sequencing of the transgene region and next-generation sequencing of the whole plasmid.
Plasmid was transformed into Escherichia coli Rosetta cells (Novagen) and cultured in M9 minimal media. The La antigen was labeled by adding ^13C-labeled amino acid precursors ([3-^13C]-α-ketobutyrate and [3,3′-^13C]-α-ketoisovalerate sodium salts; Cambridge Isotope Laboratories; 250 mg L^−1 final concentrations) to culture medium 30 min before induction with IPTG (1 mM final concentration). Bacteria were collected after incubation at 25 °C for 8 h and washed with ice-cold phosphate-buffered saline (PBS). Washed cells were lysed by French press in ice-cold lysis buffer (50 mM Tris, pH 7.6, 300 mM NaCl, 10% glycerol (v/v), 5 mM β-mercaptoethanol (BME), 5 mM imidazole, 2 mM MgCl2, benzonase, and protease inhibitor cocktail), followed by an additional brief sonication step (3 × 15 s pulse sequence) on ice. […] The eluted La antigen product was verified by SDS–PAGE to have the correct molecular weight (calculated 32 kDa), and pooled pure fractions were then dialyzed (25 mM sodium phosphate, pH 7.0, 5 mM DTT) in 16 h cycles at 4 °C with gentle stirring, for three total buffer cycles. […]
For standard testing conditions, the [^1H-^13C]-HMQC spectra were acquired in 25 mM sodium phosphate buffer, pH 7.0, 10% D2O (v/v; CIL) ± 400 μM test compounds delivered from the aforementioned stock solutions, and ± 20 mM non-deuterated DTT. […] Data were recorded at 298 K on a Bruker UltraShield 700 MHz NMR spectrometer equipped with a Bruker 1.7 mm TCI Cryoprobe and Bruker SampleJet autosampler. […]
Data were analyzed in TopSpin™ 3.5 (Bruker). […]

SMILES: c1cc(SSc2ccns2)sn1 [Compound 2, NU-9056]
- IC50 (Tip60): ~2 µM
- inhibition of PCAF in the absence of DTT compared with DTT present (PCAF [1]): notable exceptions
- IC50 (PCAF [2]): 33 µM
- IC50 (GCN5): > 100 µM
- activity vs. the five tested HATs (five tested HATs): minimal activity
- activity vs. most of the targets tested [3]: little activity
- ALARM NMR interpretation (human La antigen): Thiol-reactive
- ALARM NMR, (+) DTT (human La antigen): Negative
- ALARM NMR, (-) DTT (human La antigen): Positive
